pIC50: −log10 of the molar value.
Tests used:
[1] = target: mouse melanocortin 4 receptor, wildtype mMC4R, stably expressed on HEK293 cells (mouse) (UniProt P56450); experiment: radioligand binding
[2] = target: mouse melanocortin 4 receptor, wildtype mMC4R, stably expressed on HEK293 cells (mouse) (UniProt P56450)

By UniProt entry, the sequences of proteins in these tests, tags left out.
UniProt P56450, whole entry: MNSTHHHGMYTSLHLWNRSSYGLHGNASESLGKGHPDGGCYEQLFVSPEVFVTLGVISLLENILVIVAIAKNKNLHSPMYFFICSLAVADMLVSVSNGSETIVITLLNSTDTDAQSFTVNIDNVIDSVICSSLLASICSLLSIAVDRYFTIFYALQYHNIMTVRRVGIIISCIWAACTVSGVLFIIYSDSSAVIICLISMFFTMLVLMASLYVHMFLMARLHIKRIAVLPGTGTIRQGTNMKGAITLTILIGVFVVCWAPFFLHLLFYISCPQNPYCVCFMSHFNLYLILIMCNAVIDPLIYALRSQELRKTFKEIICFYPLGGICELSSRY

“CJL-1-14, Ac-His-DPhe-Arg-Trp-NH2 (peptide)” showed a pIC50 [1] of 6.89 and an Agonist cAMP Based Alpha Screen Results EC50 (nM), stable mMC4R cells [2] of 8.5 nM.
